The target of this assay is CSF-1R (c-fms) (Homo sapiens (Human), UniProt P07333). The assay can be described thus: Fluorescence polarization competition immunoassay (1 nM c-fms; peptide Pi assay). In kind it is biochemical. Conditions: read-out: 1 nM c-fms; peptide Pi assay - IC-50. A general note: Polarisation of emitted light reports the rotation of a fluorescent probe.

Sequences of proteins named here, by UniProt entry; tags and fusion partners are left off. Residues count along the entry.
UniProt P07333, 20-972: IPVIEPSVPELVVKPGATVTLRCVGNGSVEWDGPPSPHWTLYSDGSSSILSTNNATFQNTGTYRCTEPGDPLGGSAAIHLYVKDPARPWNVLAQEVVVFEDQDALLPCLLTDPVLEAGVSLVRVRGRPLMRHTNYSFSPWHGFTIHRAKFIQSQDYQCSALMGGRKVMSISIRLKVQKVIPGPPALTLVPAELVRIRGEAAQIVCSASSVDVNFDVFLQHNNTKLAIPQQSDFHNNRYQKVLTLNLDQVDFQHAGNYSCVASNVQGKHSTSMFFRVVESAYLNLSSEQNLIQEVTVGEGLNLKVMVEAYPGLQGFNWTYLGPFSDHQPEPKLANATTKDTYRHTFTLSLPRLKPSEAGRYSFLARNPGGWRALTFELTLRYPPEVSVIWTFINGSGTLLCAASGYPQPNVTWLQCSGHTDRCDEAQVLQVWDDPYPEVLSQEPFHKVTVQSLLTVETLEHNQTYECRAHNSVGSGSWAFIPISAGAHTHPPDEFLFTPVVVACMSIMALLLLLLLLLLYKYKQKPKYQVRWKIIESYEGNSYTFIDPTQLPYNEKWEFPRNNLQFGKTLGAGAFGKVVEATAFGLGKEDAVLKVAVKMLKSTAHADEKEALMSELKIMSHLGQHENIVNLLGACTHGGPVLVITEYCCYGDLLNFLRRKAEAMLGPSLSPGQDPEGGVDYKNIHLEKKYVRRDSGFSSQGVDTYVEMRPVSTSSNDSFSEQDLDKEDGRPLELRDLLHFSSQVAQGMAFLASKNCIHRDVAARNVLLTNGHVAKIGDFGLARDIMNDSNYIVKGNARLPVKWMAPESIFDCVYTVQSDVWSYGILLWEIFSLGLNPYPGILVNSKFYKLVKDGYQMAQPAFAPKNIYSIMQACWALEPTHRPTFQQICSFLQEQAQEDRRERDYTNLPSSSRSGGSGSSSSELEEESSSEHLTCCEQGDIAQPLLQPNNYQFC

pIC50: −log10 of the molar value. Bounds are passed on as bounds.

Take `N#Cc1c[nH]c(C(=O)Nc2ccc(C(CO)CO)cc2C2=CCCCC2)n1` [Example 11, 4-Cyano-1H-imidazole-2-carboxylic acid [2-cyclohex-1-enyl-4-(2-hydroxy-1-hydroxymethyl-ethyl)-phenyl]-amide]: the pIC50 is less than 7.22.

(Values after US8674100B2, “Inhibitors of C-FMS kinase” (Janssen Pharmaceutica, N.V., priority 2006, dated 2014).)
